Results on two molecules are retold here after patent publication US20250313560A1, “Novel bicyclic benzylamido pyridine derivatives as SOS1 inhibitors” (Boehringer Ingelheim International GmbH, priority 2024, published 2025).

Sequences of proteins named here, by UniProt entry; tags and fusion partners are left off. A change or cut given only in a name is not applied to a line headed by its entry. Residues count along the entry.
UniProt Q07889, 564-1049 limits assumed, stated change not applied: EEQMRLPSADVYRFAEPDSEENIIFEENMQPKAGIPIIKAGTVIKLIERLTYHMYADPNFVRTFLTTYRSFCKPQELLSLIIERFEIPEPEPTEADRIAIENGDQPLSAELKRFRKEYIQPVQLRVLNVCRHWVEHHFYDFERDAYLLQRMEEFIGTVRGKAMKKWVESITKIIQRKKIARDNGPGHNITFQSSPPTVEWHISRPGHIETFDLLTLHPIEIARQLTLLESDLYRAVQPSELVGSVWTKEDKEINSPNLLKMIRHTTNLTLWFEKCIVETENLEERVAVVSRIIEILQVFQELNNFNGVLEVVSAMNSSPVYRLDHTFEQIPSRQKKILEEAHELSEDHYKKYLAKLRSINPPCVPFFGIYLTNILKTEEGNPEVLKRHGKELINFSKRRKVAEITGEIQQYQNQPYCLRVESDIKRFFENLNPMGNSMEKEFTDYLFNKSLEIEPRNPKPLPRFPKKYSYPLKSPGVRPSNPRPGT
UniProt P08684, whole entry: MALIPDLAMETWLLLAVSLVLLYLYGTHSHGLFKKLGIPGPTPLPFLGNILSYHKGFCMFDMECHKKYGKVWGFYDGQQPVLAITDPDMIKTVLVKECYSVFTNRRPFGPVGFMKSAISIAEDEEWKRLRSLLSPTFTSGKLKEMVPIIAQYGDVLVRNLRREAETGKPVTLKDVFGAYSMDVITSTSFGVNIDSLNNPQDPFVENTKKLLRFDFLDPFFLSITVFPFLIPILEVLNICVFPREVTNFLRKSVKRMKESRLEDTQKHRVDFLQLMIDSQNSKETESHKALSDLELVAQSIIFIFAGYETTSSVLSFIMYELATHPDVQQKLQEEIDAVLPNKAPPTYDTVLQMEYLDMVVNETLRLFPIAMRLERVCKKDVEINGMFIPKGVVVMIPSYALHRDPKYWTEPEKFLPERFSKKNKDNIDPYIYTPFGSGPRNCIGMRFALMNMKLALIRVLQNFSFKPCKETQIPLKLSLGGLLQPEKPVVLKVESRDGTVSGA

For one data set, the target named is SOS1 and KRAS G12D (Homo sapiens (Human), UniProt Q07889). Briefly: KRAS::SOS1 AlphaScreen binding assay (KRAS G12D). The following applies: read-out: IC50 [nM] G12D, average of at least two measurements. The procedure:
(§1) Low IC50 values are indicative of high potency of the SOS1 inhibitor compound in this assay setting:
(§2) • GST-tagged SOS1 (564_1049_GST_TEV_ECO) produced in-house • 6xHis-Tev-K-RasG12D/G12C(1-169)Avi produced in-house • GDP (Sigma Cat No G7127) • AlphaLISA Glutathione Acceptor Beads (PerkinElmer, Cat No AL109) • AlphaScreen Streptavidin Donor Beads (PerkinElmer Cat No 6760002) • Assay plates: Proxiplate-384 PLUS, white (PerkinElmer, Cat No 6008289)
(§3) [formula] • KRAS::SOS1 GDP mix: • 7.5 nM (final assay concentration) K-RasG12C, 10 nM (final assay concentration) K-RasG12D, 10 μM (final assay concentration) GDP and 5 nM (final assay concentration) GST-SOS1 are mixed in assay buffer prior to use and kept at rt. […]
(§4) Compounds are diluted to a final start concentration of 100 μM and are tested in duplicate. Assay-ready plates (ARPs) are generated using an Access Labcyte Workstation with a Labcyte Echo 550 or 555 acoustic dispenser. […]
(§5) After a 30 minute incubation time, 5 μL of bead mix is added into columns 1-23. […] After a further 60 minutes incubation, the signal is measured using a PerkinElmer Envision HTS Multilabel Reader using the AlphaScreen specifications from PerkinElmer. […]
(§6) Result calculation: IC50 values are calculated and analyzed using a 4 parametric logistic model. […]

Data set [1] has as its system ERK phosphorylation in NCI-H358 SOS2 KO cells (KRAS G12C). Briefly: Erk phosphorylation assay. Particulars: read-out: pERK IC50, EGF stimulated, average of at least two measurements. The procedure: Low IC50 values are indicative of high potency of the SOS1 inhibitor compounds in this assay setting.
ERK phosphorylation assays are performed using the following human cell line: • NCI-H358 SOS2 KO (Hofmann, Gmachl, Ramharter et al, Cancer Discov. 2021, 11(1):142-15): human lung cancer with a KRAS G12C mutation; […]
NCI-H358 SOS2 KO are seeded at 50000 cells per well in 60 μL of DMEM with 2% FBS, in Greiner TC 384 plates. […] After 20 minutes of incubation at rt with shaking, 6 μL of each lysate sample is transferred to a 384-well Proxiplate and analyzed for pERK (Thr202/Tyr204) with the AlphaLISA SureFire Ultra pERK1/2 (Thr202/Tyr204) Assay Kit. 3 μL Acceptor Mix and 3 μL Donor Mix are added under subdued light and incubated for 2 h at rt in the dark, before the signal is measured on a Perkin Elmer Envision plate reader using 384 AlphaScreen settings for Proxiplates. […]

The target of a further data set is SOS1 and KRAS G12C (Homo sapiens (Human), UniProt Q07889). Description: KRAS::SOS1 AlphaScreen binding assay (KRAS G12C). Particulars: read-out: IC50 [nM] G12C, average of at least two measurements. The protocol:
as §1, §2, §3, §4, §5, §6
A general note: In Alpha technology, singlet oxygen from a donor bead excites a nearby acceptor bead.

The test system of a further data set is human hepatocytes. Briefly: Metabolic stability in human hepatocytes. Particulars: 1 μM test compound, 50% human serum, percentage of liver blood flow. The protocol:
The metabolic degradation of a test compound is performed with hepatocytes in suspension. After recovery from cryopreservation, human hepatocytes are diluted in Dulbecco's modified eagle medium (supplemented with 3.5 μg glucagon/500 mL, 2.5 mg insulin/500 mL, 3.75 mg hydrocortisone/500 mL, 50% human serum) to obtain a final cell density of 1.0×10^6 cells/mL. Following a preincubation in a cell culture incubator (37° C., 10% CO2), test compound dissolved in DMSO is mixed with the hepatocyte suspension, resulting in a final test compound concentration of 1 μM and a final DMSO concentration of 0.05%.
The cell suspension is incubated at 37° C. (cell culture incubator, horizontal shaker) and samples are removed from the incubation after 0, 0.5, 1, 2, 4 and 6 hours. […]
The percentage of remaining test compound is calculated using the peak area ratio (test compound/internal standard) of each incubation time point relative to the time point 0 peak area ratio. […]
In vitro intrinsic clearance (CLint) is calculated from in vitro T1/2 and scaled to whole liver using a hepatocellularity of 120×10^6 cells/g liver, a human liver per body weight of 25.7 g liver/kg as well as in vitro incubation parameters, applying the following equation: […]
Results are expressed as percentage of hepatic blood flow: […]
Table 3: Hepatic clearance expressed as percentage of liver blood flow (QH [%]) of exemplified compounds. […]

The target in another data set is CYP3A4 (Homo sapiens (Human), UniProt P08684). Description: Mechanism-based inhibition of CYP3A4 assay (MBI 3A4). The following applies: human liver microsomes, midazolam substrate; hydroxy-midazolam formation after 30 min preincubation relative to 0 min. The protocol:
Mechanism-Based Inhibition of CYP3A4 assay (MBI 3A4): The mechanism-based inhibition towards CYP3A4 is assayed in human liver microsomes with midazolam as substrate. The test compounds and water control (wells w/o test compound) are preincubated in presence of NADPH (1 mM) with human liver microsomes (0.2 mg/mL) at a concentration of 0, 5 and 25 μM for 0, 10 and 30 min. After preincubation, the incubate is diluted 1:10 (to 0.02 mg/mL) and the substrate midazolam (15 μM) is added for the main incubation (10 min). The main incubation is quenched with ACN and the formation of hydroxy-midazolam is quantified via LC/MS-MS. The formation of hydroxy-midazolam from the 30 min preincubation relative to the formation from the 0 min preincubation is used as a readout. Values of less than 100% mean that the substrate midazolam is metabolized to a lower extent upon 30 min preincubation compared to 0 min preincubation. In general, low effects upon 30 min preincubation are desired (corresponding to values close to 100%/not different to the values determined with water control).
Table 5: Mechanism-based inhibition of P450 isoenzyme 3A4 with midazolam as substrate. Data obtained with the disclosed assay for a selection of compounds (I) according to the invention. At least one measurement otherwise average values of at least two measurements.

Another data set deals with P450 3A4 (Homo sapiens (Human), UniProt P08684). Briefly: Cytochrome P450 isoenzyme inhibition assay (P450 3A4, midazolam). Particulars: read-out: CYP3A4 inhibition IC50; human liver microsomes, Midazolam as substrate. The procedure: The inhibition of the conversion of a specific substrate to its metabolite is assayed at 37° C. with human liver microsomes and used to determine the inhibition of cytochrome P450 isoenzymes. For the following cytochrome P450 isoenzymes, these substrates and metabolic reactions are monitored: P450 3A4: hydroxylation of Midazolam (MDZ).
The final incubation volume contains TRIS buffer (0.1 M), MgCl2 (5 mM), a certain concentration of human liver microsomes dependent on the P450 isoenzyme measured (P450 3A4: 0.1 mg/ml) and a certain concentration of the individual substrate for each isoenzyme (P450 3A4: Midazolam 5 μM).
The effect of the test compound is determined at five different concentrations in duplicate (e.g. highest concentration 50 μM with subsequent serial 1:4 dilutions) or without test compound (high control). […] Peak area analyte (=metabolite formed) and internal standard is determined by LC-MS/MS. […] Within each of the assay runs, the IC50 of a positive control inhibitor dependent on the P450 isoenzyme measured (P450 3A4: ketoconazole) is determined. The assay results are plotted against compound concentrations to calculated IC50 values (half maximal inhibitory concentrations) for inhibitory compounds utilizing Software IDBS E-WorkBook. […]
On the technique in general: Liver microsomes are a subcellular fraction often used to study metabolism.

The term IC50 denotes the concentration that gives 50% inhibition. Take `C[C@@H](NC(=O)c1cc([C@H]2CC[C@H](N3CC4CC4(O)C3)CC2)c2ncnn2c1)c1cccc(C(F)F)c1F` (single isomer, unassigned) [Example E64a]: the IC50 at SOS1 and KRAS G12D was 39 nM; in data set [1] it was 198 nM; on SOS1 and KRAS G12C, 41 nM; on P450 3A4 it was greater than 50000 nM. Further, the “Hepatic clearance - QH[%] in human hepatocytes” value in the data set on human hepatocytes turned out to be 16%. For the same molecule, at CYP3A4, the “MBI inhibition % ctrl. [%] with MDZ” value was found to be 95%.
As for `C[C@@H](NC(=O)c1cc([C@H]2CC[C@H](N3CC4CC4(O)C3)CC2)c2ncnn2c1)c1cccc(C(F)F)c1F` (single isomer, unassigned) [Example E64b], the IC50 at SOS1 and KRAS G12D was 36 nM; in data set [1] it was 366 nM; on SOS1 and KRAS G12C, 35 nM; at P450 3A4, greater than 50000 nM. Further, in the data set on human hepatocytes, the “Hepatic clearance - QH[%] in human hepatocytes” value is 23%. For the same molecule, the “MBI inhibition % ctrl. [%] with MDZ” value at CYP3A4 is recorded as 76%.
